The target in this assay is Adenosine receptor A1 (Homo sapiens) (UniProt P30542). Briefly: Binding affinity to adenosine A1 receptor (unknown origin) assessed as inhibition constant.

Amino acid sequences for entries named in this document (tags omitted).
UniProt P30542, whole entry: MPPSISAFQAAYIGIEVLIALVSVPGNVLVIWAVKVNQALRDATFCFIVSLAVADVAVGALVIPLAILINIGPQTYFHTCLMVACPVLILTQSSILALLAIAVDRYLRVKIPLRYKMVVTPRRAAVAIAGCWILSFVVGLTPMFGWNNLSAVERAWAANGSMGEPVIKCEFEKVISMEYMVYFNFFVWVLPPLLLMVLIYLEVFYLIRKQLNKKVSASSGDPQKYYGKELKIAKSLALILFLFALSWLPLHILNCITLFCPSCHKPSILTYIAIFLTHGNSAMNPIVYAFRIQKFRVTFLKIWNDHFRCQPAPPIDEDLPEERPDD

In the case of `O=[N+]([O-])OC[C@H]1O[C@@H](n2cnc3c(NC4CCCC4)ncnc32)[C@H](O)[C@@H]1O`, the K worked out at 0.97 nM.

(Values after ChEMBL document CHEMBL5241102, “Drugs for the treatment of glaucoma: Targets, structure-activity relationships and clinical research” (Eur J Med Chem, 2021).)
